Tests used:
BALB/c mice = assay: Micronucleus PCE test (MN PCE‰) in mice; type: in vivo; details: for MN PCE‰ / genotoxic damage compared to WT strain infection: single candidalysin dose vs fungal colonization
Method: On the day before infection (Day 0), mice (n = 6) were sedated by intraperitoneal injection of 75 mg/kg sodium pentobarbital. After anesthetized, for C. albicans infected group, a sterile cotton swab soaked in 10^7 CFU/mL of C. albicans culture in PBS was placed on the tongue for 75 min, and for candidalysin treated group, a sterile cotton swab soaked in 70 μM candidalysin solution was placed on the tongue for 75 minutes. For the control group (n = 6), a swab soaked in PBS was used. After Day 5, mice were euthanized, the tongue was excised and collected for CFU counting, histopathology and immunohistochemistry analysis. The results of immunohistochemistry were quantified by histochemistry scores.
Bone marrow cells were removed from the femurs and tibias of BALB/c mice and processed with FBS. Prior to be enumerated under the microscope, the cells were air-dried naturally, fixed with methanol and stained with Giemsa solution (Sigma, 1.09203). Counts of at least 4,000 polychromatic erythrocytes (PCE) per piece were required to calculate the micronucleus PCE rate.

FaDu cells [1] = assay: Western blot of CCNH and γ-H2AX, FaDu cells; type: cell-based
Method: Cells were lysed with cell lysis buffer (Beyotime, #P0013) on ice for 30 min. The supernatant of cell lysate was then collected in a table-top refrigerated centrifuge at 4 °C and 14,000 × g for 10 min. Protein concentration was determined by Pierce™ BCA Protein Assay Kit (Thermo Scientific™, #23227). Antibodies against the following proteins were used for Western blotting analysis: CCNH antibody (CST,Rabbit Source, Cat#2927, 1:1000 dilution), gama-H2AX antibody (CST, Rabbit Source, Cat#97185, 1:1000 dilution), GAPDH (D16H11) XP® Rabbit mAb (CST, Rabbit Source, Cat#5174 S, 1:1000 dilution), Anti-CDK2 (phospho T160) + CDK1 (phospho T161) antibody (Abcam, Rabbit Source, Cat#EPR17621, 1:1000 dilution), Anti-rabbit IgG, HRP-linked Antibody (CST, Goat Source, Cat#7074, 1:5000 dilution), […] Tag (D6W5B) Rabbit mAb (CST, Rabbit Source, Cat#14793, 1:1000 dilution), GFP (4B10) Mouse mAb (CST, Mouse Source, Cat #2955, 1:1000 dilution), Anti-mouse IgG,HRP-linked antibody (CST, Goat Source, Cat#7076, 1:5000 dilution). Membranes were treated with SuperSignal™ West Pico PLUS Chemiluminescent Substrate (Thermo Scientific™, #34577) prior to visualization in the Chemiluminescence Imaging Analysis System (BG-gdsAUTO720, Baygene). GAPDH was used as the loading control.

FaDu cells [2] = assay: LDH cytotoxicity assay, FaDu cells; type: cell-based
Method: Cells were deposited into 96-well plates and incubated at 37 °C with 5% CO2. Prior to the cell damage assay, cells were starved in serum-free medium overnight. Cytotoxicity LDH Assay Kit-WST (Dojindo, #CK12) was applied to determine the lactate dehydrogenase (LDH) activity released from cells that were damaged by candidalysin for 2 h or 4 h according to the manufacturer’s instructions.

CCNH = assay: Bimolecular fluorescence complementation (BiFC) assay in HEK-293T cells; type: binding, human; details: green fluorescence
From the text: High-fidelity DNA polymerase (gene-optimal, 60070E) and the primers were used to amplify the target DNA of CCNH and candidalysin. The target DNA fragments were recovered and recombined with linearized pBiFC-VC155 (Vector), double cleaved by EcoRI (Thermo Scientific™, FD0583) and KpnI (Thermo Scientific™, FD0504), and pBiFC-VN173 (Vector), double cleaved by HindIII (Thermo Scientific™, FD0584) and XbaI (Thermo Scientific™, FD0503), respectively. Constructed pBiFC-VC155-CCNH and pBiFC-VN173-candidalysin were transformed into E. coli DH5α receptor cells (TIANGEN, CB101). The plasmids pBiFC-VC155-CCNH and pBiFC-VN173-candidalysin were co-transfected into 3 × 10^5 HEK293T cells by Lipofectamine™ 3000 (Thermo Scientific™, L3000001). The pBiFC-VC155 (Vector) and pBiFC-VN173 (Vector) plasmid were co-transfected into the control group. Transfected cells were incubated at 37 °C for 12 h and then switched to 4 °C for 2 h. The cells were imaged under the fluorescence microscope.

CHO-K1 cells = assay: Cell-cycle analysis by flow cytometry (propidium iodide), CHO-K1 cells; type: cell-based; details: 4 h
Method: For cell-cycle analysis, cells were collected and fixed overnight in 70% ethanol at −20 °C, washed and resuspended in 100 μg/mL RNase A Reagent for 30 min at 37 °C, then treated with 15 μg/mL propidium iodide (Elabscience, E-CK-A351) at 4 °C for 30 min in dark condition. After staining, cell-cycle analyses were carried out by flow cytometry. Data were analyzed with the FlowJo software (Tree Star). At least 1 × 10^4 cells were acquired per sample, and every experiment was repeated at least three times.

FaDu cells [3] = assay: Micronucleus test (MNT), FaDu cells; type: cell-based; details: 10 μM candidalysin, 4 h
Method: About 3 × 10^5 FaDu cells were seeded into six-well culture plate for 24 h and exposed to either 10 μM candidalysin or 10 μM cisplatinum (micronuclei inductor) or their binary mixtures for 4 h. Cells were washed with fresh PBS and resuspended with fresh MEM medium with 10% FBS and 1% PS. The cells were further cultured for an extra 75 h. After washing with PBS, the treated cells were collected in 15 ml tube and fixed in methanol and acetic acid (3:1, v/v) overnight. The cultures were dropped onto glass slides, which were then stained with Giemsa solution for 5 min, washed with distilled water and dried at room temperature. For each treatment, 2000 cells were counted under ×400 magnification using a light microscope. The micronuclei frequency (MF) was thus calculated by (MN/2000) ×100.

SMILES: CC[C@H](C)[C@H](NC(=O)CNC(=O)[C@H](CCSC)NC(=O)[C@@H](NC(=O)[C@@H](NC(=O)CNC(=O)[C@@H](NC(=O)[C@@H](NC(=O)[C@@H](N)CO)[C@@H](C)CC)[C@@H](C)CC)[C@@H](C)CC)[C@@H](C)CC)C(=O)N[C@@H](CC(C)C)C(=O)NCC(=O)N[C@@H](CC(N)=O)C(=O)N[C@H](C(=O)N1CCC[C@H]1C(=O)N[C@@H](CCC(N)=O)C(=O)N[C@H](C(=O)N[C@H](C(=O)N[C@@H](CCC(N)=O)C(=O)N[C@H](C(=O)N[C@H](C(=O)N[C@@H](CCSC)C(=O)N[C@@H](CO)C(=O)N[C@H](C(=O)N[C@H](C(=O)N[C@@H](CCCCN)C(=O)N[C@@H](C)C(=O)N[C@@H](Cc1ccccc1)C(=O)N[C@@H](CCCCN)C(=O)NCC(=O)N[C@@H](CC(N)=O)C(=O)N[C@@H](CCCCN)C(=O)O)C(C)C)[C@@H](C)CC)[C@@H](C)CC)[C@@H](C)CC)[C@@H](C)CC)C(C)C)[C@@H](C)CC [Ece1-III]
- MN PCE (‰) (BALB/c mice; compared to the control / sham infected group): significant increase
- MN PCE (‰) (BALB/c mice; mice, Fig. 5c source data, replicate 1): 17.4651 ‰
- MN PCE / (PCE + NCE) (BALB/c mice; mice, Fig. 5c source data, replicate 1 (counts)): 70/4008
- MN PCE (‰) (BALB/c mice; mice, Fig. 5c source data, replicate 2): 31.984 ‰
- MN PCE / (PCE + NCE) (BALB/c mice; mice, Fig. 5c source data, replicate 2 (counts)): 128/4002
- MN PCE (‰) (BALB/c mice; mice, Fig. 5c source data, replicate 3): 29.4985 ‰
- MN PCE / (PCE + NCE) (BALB/c mice; mice, Fig. 5c source data, replicate 3 (counts)): 120/4068
- MN PCE (‰) (BALB/c mice; mice, Fig. 5c source data, replicate 4): 13.3796 ‰
- MN PCE / (PCE + NCE) (BALB/c mice; mice, Fig. 5c source data, replicate 4 (counts)): 54/4036
- MN PCE (‰) (BALB/c mice; mice, Fig. 5c source data, replicate 5): 27.114 ‰
- MN PCE / (PCE + NCE) (BALB/c mice; mice, Fig. 5c source data, replicate 5 (counts)): 118/4352
- MN PCE (‰) (BALB/c mice; mice, Fig. 5c source data, replicate 6): 23.5525 ‰
- MN PCE / (PCE + NCE) (BALB/c mice; mice, Fig. 5c source data, replicate 6 (counts)): 96/4076
- MN PCE‰ / genotoxic damage compared to WT strain infection (BALB/c mice): genotoxic damage to the same extent as fungal colonization
- MN PCE‰ / genotoxic damage compared to WT strain infection (BALB/c mice; listed as Clys): no statistically significant difference
- γ-H2AX expression (FaDu cells [1]): significantly elevated expression
- γ-H2AX expression after short-term exposure (FaDu cells [1]; 10 µM, 4 h): gradually restored to control level
- γ-H2AX expression during recovery after long-term exposure (FaDu cells [1]; 10 µM, 24 h): sustained higher expression of γ-H2AX even during the recovery period
- CCNH expression (FaDu cells [1]; 24 h treatment): dose-dependent inhibition of CCNH expression
- cell damage and cytokine secretion (FaDu cells [2]): induced both cell damage and cytokine secretion
- LDH release (FaDu cells [2]; 5 to 80 µM): significantly increased
- intracellular interaction with CCNH by BiFC (CCNH): formation of green fluorescence signals strongly reflects the intracellular interaction
- cell cycle (CHO-K1 cells; 10 μM): effectively blocked cell cycle in the G2/M phase
- cell cycle (CHO-K1 cells; 20 μM): blocked cells in the S phase
- micronucleus formation (FaDu cells [3]): higher incidence of micronucleus formation
